Source: US20120151612A1, “NON-SURGICAL APPROACH TO PREVENT AND CORRECT CRANIOFACIAL MALFORMATIONS DURING DEVELOPMENT” (UNIVERSITY OF SOUTHERN CALIFORNIA, priority 2010, published 2012)
“Also recorded” adds a separate entry of the source.

System: Tgfbr2^fl/fl; Wnt1-Cre MEPM cells
Assay: Lipid droplet accumulation (Oil Red O staining) in primary MEPM cells
Assay type: cell-based, mice
Experimental: Histological examination. Cryosections were stained with Oil Red O to detect lipid production. Prepared sections were washed three times in phosphate buffer saline (PBS) (each wash 5 min) and fixed in 4% formaldehyde in 0.1 M phosphate buffer for 1 h at room temperature. Sections were then incubated for 15 min in 60% isopropanol and stained for 15 min with a filtered solution of three parts of Oil Red O (saturated in isopropanol) and two parts of ddH2O. For the next step, slides were briefly rinsed in 60% isopropanol and washed thoroughly in ddH2O. Cells were counterstained in Mayers Hematoxylin Solution.
Primary MEPM cells. Primary MEPM cells were obtained from E13.5 embryos. Briefly, palatal shelves were dissected at E13.5, and trypsinized for 30 minutes at 37° C. in a CO2 incubator. After pipetting thoroughly, cells were cultured in Dulbecco's modified Eagle's medium containing 10% fetal bovine serum supplemented with penicillin, streptomycin, L-glutamate, sodium pyruvate, and nonessential amino acids.

`O=[N+]([O-])c1ccc(-c2nc(-c3ccncc3)c(-c3ccc(F)cc3)[nH]2)cc1` [PD169316, 4-[5-(4-fluorophenyl)-2-(4-nitrophenyl)-1H-imidazol-4-yl]-pyridine] was tested. Which lipid droplet accumulation did it give?
Its lipid droplet accumulation is “failed to detect lipid droplet accumulation; also recorded: Lipid droplets did not accumulate”.
